Measured values published in patent US20250076288A1, “STABILIZED PEPTIDES FOR BIOMARKER DETECTION” (Dana-Farber Cancer Institute, Inc., priority 2018, published 2025).

Chains of the proteins cited; added tags and fusions are not shown.
UniProt Q00987, whole entry: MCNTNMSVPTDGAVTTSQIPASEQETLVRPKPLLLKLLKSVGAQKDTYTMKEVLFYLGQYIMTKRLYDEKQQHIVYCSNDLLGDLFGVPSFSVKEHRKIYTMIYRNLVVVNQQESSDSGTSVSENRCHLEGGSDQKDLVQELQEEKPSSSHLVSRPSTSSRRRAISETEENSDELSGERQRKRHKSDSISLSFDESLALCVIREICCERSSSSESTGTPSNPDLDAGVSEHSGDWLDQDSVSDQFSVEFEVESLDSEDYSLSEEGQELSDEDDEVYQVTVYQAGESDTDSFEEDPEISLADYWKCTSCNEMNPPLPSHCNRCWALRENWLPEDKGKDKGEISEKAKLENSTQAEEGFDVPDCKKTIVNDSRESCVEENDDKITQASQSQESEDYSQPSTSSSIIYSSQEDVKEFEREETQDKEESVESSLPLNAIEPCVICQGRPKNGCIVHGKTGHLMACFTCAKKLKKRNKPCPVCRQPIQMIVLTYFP

Biological target: T1, HDM2 (Homo sapiens, UniProt Q00987)
T1 construct: expressed in transfected cells; co-transfected with GBP-LaminB1
Assay: Colocalization of biotin-labeled stapled peptide with GFP-HDM2 in transfected fixed cells
Assay type: cell-based
Details: co-transfection with GBP-LaminB1, fixed cells, FIGS. 8A-C
Text: In this example, a stapled p53 peptide that targets HDM2 was labeled with biotin as described above (see, e.g., FIG. 1 and Examples 3 and 4) to detect HDM2 in cells and tissues. The construct and approach was validated in cells transfected with GFP-labeled HDM2 and assessed for colocalization with the HDM2-targeting, biotin-labeled stapled peptide, ATSP-7041 (SEQ ID NO:26).

LTFZEYWAQOXSAA [ATSP-7041]
colocalization with GFP-HDM2 relocalized to the nuclear lamina: Colocalization was successfully demonstrated
